Data on two molecules can be found in the OPERA property sets (Mansouri et al. 2018).

The structures appear in SMILES notation.

In turn, `COP(=S)(OC)OC` gave a log10 OH rate constant (cm³/molecule/s) of -10.2. The molecule `C1CN1` returned a log10 OH rate constant (cm³/molecule/s) of -11.2.
